Test results published in patent US8492329B2, “Bioactive peptides and methods of using same” (Compugen Ltd., priority 2007, dated 2013).

Columns and labels:
[1] = target: T1, LGR5 (Homo sapiens, UniProt O75473); assay: cAMP accumulation in CHO-K1 cells transiently transfected with LGR5; format: cell-based; settings: 1 uM, pre-treatment with Forskolin, FIG. 3B
T1 construct: expressed in transfected cells; host or cells: CHO-K1 (transient)
T1 sequence (O75473 22-907): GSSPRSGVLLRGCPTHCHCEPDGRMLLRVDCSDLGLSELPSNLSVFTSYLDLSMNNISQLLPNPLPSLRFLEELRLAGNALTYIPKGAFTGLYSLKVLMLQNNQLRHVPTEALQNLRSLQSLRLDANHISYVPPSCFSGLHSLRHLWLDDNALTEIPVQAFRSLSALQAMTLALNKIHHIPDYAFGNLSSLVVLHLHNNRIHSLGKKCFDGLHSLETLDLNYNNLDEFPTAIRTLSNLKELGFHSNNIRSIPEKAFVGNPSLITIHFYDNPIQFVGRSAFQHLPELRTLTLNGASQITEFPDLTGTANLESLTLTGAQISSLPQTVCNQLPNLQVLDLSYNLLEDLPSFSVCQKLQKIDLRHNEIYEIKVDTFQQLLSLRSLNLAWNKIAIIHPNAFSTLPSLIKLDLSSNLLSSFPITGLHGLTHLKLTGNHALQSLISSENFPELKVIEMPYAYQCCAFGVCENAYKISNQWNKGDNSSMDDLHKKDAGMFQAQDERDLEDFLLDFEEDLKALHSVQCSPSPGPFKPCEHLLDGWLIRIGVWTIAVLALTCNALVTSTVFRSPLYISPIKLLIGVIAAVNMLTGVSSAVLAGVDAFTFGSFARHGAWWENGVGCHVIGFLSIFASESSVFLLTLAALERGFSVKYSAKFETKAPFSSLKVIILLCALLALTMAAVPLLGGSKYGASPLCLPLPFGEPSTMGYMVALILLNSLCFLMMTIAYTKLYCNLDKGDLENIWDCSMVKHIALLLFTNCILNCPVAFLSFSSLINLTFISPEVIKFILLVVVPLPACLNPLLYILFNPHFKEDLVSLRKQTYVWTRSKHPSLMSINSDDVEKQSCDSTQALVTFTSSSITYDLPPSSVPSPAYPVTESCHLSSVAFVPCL
Protocol: [The procedure below names another target; the source says it served here with some conditions changed.] (§1) LGR7 (RXFP1) or LGR8 (RXFP2) were transiently transfected into CHO-K1 cells as follows: Cells (12 million) were plated into T75 flasks on the day preceding transfection. Cells were transfected with a GPCR DNA and Gα16 using a lipid technique according to the manufacturer's recommendation. Cells were transfected for 5 hours, then re-plated into 96-well dishes (60,000 cells per well) and grown overnight. Transfected cells were plated into 24 wells of a 96-well plate. Cells were pre-treated with 0.5 mM IBMX (stimulation buffer) for 10 min at 37° C., then stimulated with either a positive control (Relaxin 2) or a candidate peptide (for Gs functional examination), followed by stimulation or a preincubation with 10 μM forskolin (for Gi functional examination). […]
(§2) The ability of Peptides to affect cAMP concentration was examined in CHO-K1 cells transiently transfected the GPCR's LGR4, LGR5, or LGR6 and treated with 1 uM of P59C13V (P59) (SEQ ID NO: 6), P74C13V (P74) ((SEQ ID NO: 10), or HCG (ACS) which was used as a positive control. cAMP accumulation in the cells was then measured as described above with (Gi) or without (Gs) pre-treatment with Forskolin.

[2] = target: T2, LGR4 (Homo sapiens, UniProt Q9BXB1); assay: cAMP accumulation in CHO-K1 cells transiently transfected with LGR4; format: cell-based; settings: 1 uM, pre-treatment with Forskolin, FIG. 3C
T2 construct: expressed in transfected cells; host or cells: CHO-K1 (transient)
Protocol: [The procedure below names another target; the source says it served here with some conditions changed.] as §1, §2

Gi effect (decrease in cAMP accumulation) [1]: No significant Gi activation | Gi effect (decrease in cAMP accumulation) [2]: slight but significant Gi activation
Substance: HCG: HCG (ACS) which was used as a positive control [reference compound]
